The assay addresses Folate receptor alpha (Homo sapiens) (UniProt P15328). In words: Binding affinity to human FRalpha expressed in human HeLa R1-11-FR2 cells assessed as antiproliferative activity measured as reduction in cell growth after 96 hrs by Cell-Titer Blue assay.

IC50 data for one compound are collected here from BindingDB's records for doi:10.1021/acs.jmedchem.8b00408 (Duquesne University, 2018).

On to `Nc1nc2[nH]c(CCCc3csc(C(=O)N[C@@H](CCC(=O)O)C(=O)O)c3)cc2c(=O)[nH]1`, for which the IC50 was determined as 7.6 nM.
